System: NF-κB
Assay: NF-κB luciferase reporter assay in LPS-stimulated RAW 264.7 macrophages
Assay type: cell-based
Conditions: read-out: NF-kB inhibitory activity IC50 μM; RAW 264.7 cells with 3×NFkB response element luciferase reporter, 2 h pretreatment, 200 ng/ml LPS for 3 h

Work on “((2R,5S)-5-(4-amino-2-oxopyrimidin-1(2H)-yl)-1,3-oxathiolan-2-yl)methyl methyl (2-((4Z,7Z,10Z,13Z,16Z,19Z)-docosa-4,7,10,13,16,19-hexaenamido)ethyl)phosphoramidate” yielded an IC50 of 50 to 200 µM.
Work on “((2R,5S)-5-(4-amino-2-oxopyrimidin-1(2H)-yl)-1,3-oxathiolan-2-yl)methyl phenyl (2-((5Z,8Z,11Z,14Z,17Z)-icosa-5,8,11,14,17-pentaenamido)ethyl)phosphoramidate” yielded an IC50 of 50 to 200 µM.
